{
  "sequences": {"note": "Amino acid sequences for entries named in this document (tags omitted).", "UniProt Q9NZ20, whole entry": "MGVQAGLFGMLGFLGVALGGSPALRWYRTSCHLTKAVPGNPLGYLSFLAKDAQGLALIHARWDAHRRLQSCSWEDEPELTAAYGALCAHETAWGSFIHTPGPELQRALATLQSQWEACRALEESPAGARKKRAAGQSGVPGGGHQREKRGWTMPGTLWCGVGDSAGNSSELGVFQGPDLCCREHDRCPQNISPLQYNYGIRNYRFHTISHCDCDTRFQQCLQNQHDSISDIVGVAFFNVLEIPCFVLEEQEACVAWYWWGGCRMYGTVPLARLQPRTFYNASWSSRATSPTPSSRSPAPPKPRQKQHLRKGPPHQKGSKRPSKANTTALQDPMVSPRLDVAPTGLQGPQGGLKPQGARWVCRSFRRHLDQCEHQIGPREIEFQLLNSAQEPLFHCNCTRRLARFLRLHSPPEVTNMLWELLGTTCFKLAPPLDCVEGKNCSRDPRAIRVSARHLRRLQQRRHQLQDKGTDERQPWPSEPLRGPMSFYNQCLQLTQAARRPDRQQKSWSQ"},
  "source": "PubChem BioAssay AID743126",
  "about": "(The Scripps Research Institute Molecular Screening Center, 2013)",
  "note": "This is a selection; strong and weak results do not stand in their true shares. Active and inactive are the calls of the source.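 The calls were made as follows: active = inhibition above mean plus 3 SD of compounds lying within the high and low control bounds (cut at about 19% in these data); inactive = the rest.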",
  "data": [
    {"molecular_target": "Group 3 secretory phospholipase A2 (Homo sapiens) (UniProt Q9NZ20)", "experiment": "human group III sPLA2 inhibitors, primary screen, biochemical, QFRET, BODIPY PC-A2 liposome substrate (AID 743126);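 also: 0% = median of test compound wells and 100% = no enzyme DMSO wells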", "conditions": "QFRET BODIPY PC-A2 liposome hydrolysis, fluorescence; at 12.2 µM; stronger effect = higher value", "values": [
      {"smiles": "O=[N+]([O-])c1cc([N+](=O)[O-])c(Nc2nnnn2CCO)c([N+](=O)[O-])c1", "inhibition": "inactive: -1.69%"},
      {"smiles": "CCOC(=O)C(CC)C1=NC(C)(C)Cc2ccccc21.O=[N+]([O-])c1cc([N+](=O)[O-])c(O)c([N+](=O)[O-])c1", "note": "(stereo not drawn)", "inhibition": "inactive: 2.94%"},
      {"smiles": "CP(=O)(Nc1ccc(SC(F)(F)F)cc1)Oc1ccccc1", "note": "(stereo not drawn)", "inhibition": "inactive: 1.5%"},
      {"smiles": "CCCOc1ccc(NP(C)(=O)Oc2ccc(Cl)cc2)cc1", "note": "(stereo not drawn)", "inhibition": "inactive: 4.31%"},
      {"smiles": "COc1ccc(-c2ccccn2)cc1.O=[N+]([O-])c1cc([N+](=O)[O-])c(O)c([N+](=O)[O-])c1", "inhibition": "inactive: -2.31%"},
      {"smiles": "COc1ccccc1OP(C)(=O)Nc1c(C)cccc1C", "note": "(stereo not drawn)", "inhibition": "inactive: 1.6%"},
      {"smiles": "CN1CCCCC1COC(=O)C1(O)c2ccccc2CCc2ccccc21", "note": "(stereo not drawn)", "inhibition": "inactive: -6.54%"},
      {"smiles": "CN(Cc1cccnc1)C(=O)COc1ccc(Cl)c(Cl)c1.O=[N+]([O-])c1cc([N+](=O)[O-])c(O)c([N+](=O)[O-])c1", "inhibition": "inactive: 7.98%"},
      {"smiles": "O=[N+]([O-])c1cc([N+](=O)[O-])c(-n2nnc3ccccc32)c([N+](=O)[O-])c1", "inhibition": "inactive: 0.88%"},
      {"smiles": "Cc1nc2ccc3ccccc3c2s1.O=[N+]([O-])c1cc([N+](=O)[O-])c(O)c([N+](=O)[O-])c1", "inhibition": "inactive: 4.6%"},
      {"smiles": "O=[N+]([O-])c1cc([N+](=O)[O-])c(-c2cnn(-c3ccccc3)c2)c([N+](=O)[O-])c1", "inhibition": "inactive: 15.4%"},
      {"smiles": "Cc1cc(C)cc(OP(C)(=O)Nc2ccc(C)cc2C)c1", "note": "(stereo not drawn)", "inhibition": "inactive: -3.45%"},
      {"smiles": "CCOC(=O)c1ccc(NP(C)(=O)Oc2cc(C)cc(C)c2)cc1", "note": "(stereo not drawn)", "inhibition": "inactive: -7.77%"},
      {"smiles": "COc1ccccc1OP(C)(=O)Nc1cccc(Br)c1", "note": "(stereo not drawn)", "inhibition": "inactive: -2.81%"},
      {"smiles": "CP(=O)(Nc1cccc(Br)c1)Oc1ccccc1", "note": "(stereo not drawn)", "inhibition": "inactive: -7.06%"},
      {"smiles": "Cc1cc(C)cc(OP(C)(=O)Nc2ccccn2)c1", "note": "(stereo not drawn)", "inhibition": "inactive: -1%"},
      {"smiles": "Cc1ccc(C)c(NP(C)(=O)Oc2ccccc2)c1", "note": "(stereo not drawn)", "inhibition": "inactive: -2.07%"},
      {"smiles": "O=C(O)c1cccc(Nc2c([N+](=O)[O-])cc([N+](=O)[O-])cc2[N+](=O)[O-])c1", "inhibition": "inactive: 1.83%"},
      {"smiles": "CC1=NCCc2c1[nH]c1ccccc21.O=[N+]([O-])c1cc([N+](=O)[O-])c(O)c([N+](=O)[O-])c1", "inhibition": "inactive: 7.3%"},
      {"smiles": "CC(C)(C)c1ccc(OP(C)(=O)Nc2ccc(SC(F)(F)F)cc2)cc1", "note": "(stereo not drawn)", "inhibition": "inactive: 8.89%"},
      {"smiles": "Cc1cccc(C)c1OP(C)(N)=O", "note": "(stereo not drawn)", "inhibition": "inactive: 8.64%"},
      {"smiles": "O=[N+]([O-])c1ccc2c(c1)C=Nc1ccccc1O2", "inhibition": "inactive: -25.4%"},
      {"smiles": "O=[N+]([O-])c1cc([N+](=O)[O-])c(Nc2cccnc2)c([N+](=O)[O-])c1", "inhibition": "inactive: 2.79%"},
      {"smiles": "COc1ccccc1OP(C)(=O)Nc1cc(Cl)ccc1C", "note": "(stereo not drawn)", "inhibition": "inactive: -0.14%"},
      {"smiles": "COc1ccc(OP(C)(=O)Nc2cccc(F)c2)cc1", "note": "(stereo not drawn)", "inhibition": "inactive: -1.27%"},
      {"smiles": "Cc1cc(C)cc(OP(C)(N)=O)c1", "note": "(stereo not drawn)", "inhibition": "inactive: 5.94%"},
      {"smiles": "CCOC(=O)c1ccc(NP(C)(=O)Oc2ccccc2)cc1", "note": "(stereo not drawn)", "inhibition": "inactive: 1.6%"},
      {"smiles": "COc1ccccc1OP(C)(=O)Nc1ccc(C)cc1", "note": "(stereo not drawn)", "inhibition": "inactive: 12%"},
      {"smiles": "Cc1ccc(NP(C)(=O)Oc2ccccc2)c(C)c1", "note": "(stereo not drawn)", "inhibition": "inactive: -0.78%"},
      {"smiles": "CCN(CC)CCCOC(=O)C(O)(c1ccccc1)c1ccccc1", "inhibition": "inactive: 12.1%"},
      {"smiles": "COc1ccccc1-c1ccccn1.O=[N+]([O-])c1cc([N+](=O)[O-])c(O)c([N+](=O)[O-])c1", "inhibition": "inactive: -0.65%"},
      {"smiles": "CCc1ccc(OP(C)(=O)N2CCN(c3ccc([N+](=O)[O-])cc3)CC2)cc1", "note": "(stereo not drawn)", "inhibition": "inactive: -1.68%"},
      {"smiles": "CP(=O)(NC(=O)Nc1ccccc1)Oc1ccccc1", "note": "(stereo not drawn)", "inhibition": "inactive: 8.95%"},
      {"smiles": "Cc1cc(C)cc(OP(C)(=O)Nc2ccc(SC(F)(F)F)cc2)c1", "note": "(stereo not drawn)", "inhibition": "inactive: 7.5%"},
      {"smiles": "Cc1cccc(C)c1OP(C)(=O)Nc1ccc(SC(F)(F)F)cc1", "note": "(stereo not drawn)", "inhibition": "inactive: 9.55%"},
      {"smiles": "CP(=O)(Nc1ccc(SC(F)(F)F)cc1)Oc1ccc(Cl)cc1", "note": "(stereo not drawn)", "inhibition": "inactive: 7.73%"},
      {"smiles": "CP(=O)(Oc1ccccc1)OC(c1ccccc1)C(F)(F)F", "note": "(stereo not drawn)", "inhibition": "inactive: -0.02%"},
      {"smiles": "CP(=O)(Nc1ccccn1)Oc1ccc(Cl)cc1", "note": "(stereo not drawn)", "inhibition": "inactive: 1.08%"},
      {"smiles": "CCOP(C)(=S)SCC(=O)NC(C)C(=O)O", "note": "(stereo not drawn)", "inhibition": "inactive: 2.2%"},
      {"smiles": "CCOC(=O)c1ccc(NP(C)(=O)Oc2ccc(OC)cc2)cc1", "note": "(stereo not drawn)", "inhibition": "inactive: 0.85%"},
      {"smiles": "O=[N+]([O-])c1cc([N+](=O)[O-])c(O)c([N+](=O)[O-])c1.c1ccc(Oc2ccncc2)cc1", "inhibition": "inactive: 13.5%"},
      {"smiles": "COc1ccccc1OP(C)(=O)Nc1ccccc1", "note": "(stereo not drawn)", "inhibition": "inactive: -0.52%"},
      {"smiles": "CP(=O)(Nc1ccccc1Br)Oc1ccccc1", "note": "(stereo not drawn)", "inhibition": "inactive: 13.3%"},
      {"smiles": "CP(=S)(Nn1cnnc1)Oc1ccccc1", "note": "(stereo not drawn)", "inhibition": "inactive: -9.02%"},
      {"smiles": "CP(=O)(OC12CC3CC(CC(C3)C1)C2)OC12CC3CC(CC(C3)C1)C2", "inhibition": "inactive: 2.5%"},
      {"smiles": "CCOC(=O)c1ccc(NP(C)(=O)Oc2ccc(Cl)cc2)cc1", "note": "(stereo not drawn)", "inhibition": "inactive: 1.61%"},
      {"smiles": "Nc1ccc2c(ccc3cccnc32)n1.O=[N+]([O-])c1cc([N+](=O)[O-])c(O)c([N+](=O)[O-])c1", "inhibition": "inactive: -4.93%"},
      {"smiles": "CP(=O)(Oc1ccccc1)N1CCOC1=O", "note": "(stereo not drawn)", "inhibition": "inactive: 0.09%"},
      {"smiles": "CCc1ccc(OP(C)(=O)Nc2cccnc2)cc1", "note": "(stereo not drawn)", "inhibition": "inactive: 3.5%"},
      {"smiles": "COc1ccccc1OP(C)(=O)Nc1c(C)n(C)n(-c2ccccc2)c1=O", "note": "(stereo not drawn)", "inhibition": "inactive: -5.47%"},
      {"smiles": "O=C(OCCCN1CCCC1)C(O)(c1ccccc1)C1CCCCC1", "note": "(stereo not drawn)", "inhibition": "inactive: 3.28%"},
      {"smiles": "CCN(CC)CC(O)COC(=O)C(O)(c1ccccc1)C1CCCCC1", "note": "(stereo not drawn)", "inhibition": "inactive: 0.4%"},
      {"smiles": "COc1ccc(OP(C)(=O)Nc2ccc(Br)cc2)cc1", "note": "(stereo not drawn)", "inhibition": "inactive: -1.29%"},
      {"smiles": "CN(C)C(=O)c1c([N+](=O)[O-])cc([N+](=O)[O-])cc1[N+](=O)[O-]", "inhibition": "inactive: -0.81%"},
      {"smiles": "CP(=O)(Nc1ccc(Cl)cc1)Oc1ccc(F)cc1", "note": "(stereo not drawn)", "inhibition": "inactive: 3.84%"},
      {"smiles": "CC(C)(C)c1ccc(OP(C)(=O)O)cc1", "inhibition": "inactive: 2.58%"},
      {"smiles": "COc1ccccc1OP(C)(=O)Nc1ccccc1Br", "note": "(stereo not drawn)", "inhibition": "inactive: 0.99%"},
      {"smiles": "CN(C)CCOC(=O)C(O)(c1ccccc1)C1CCCC1", "note": "(stereo not drawn)", "inhibition": "inactive: -0.23%"}
    ]}
  ]
}
